The results in this text go back to ChEMBL document CHEMBL5316282, “Small-Molecule Cyanamide Pan-TEAD·YAP1 Covalent Antagonists” (J Med Chem, 2023).

Chains of the proteins cited; added tags and fusions are not shown.
UniProt P28347, whole entry: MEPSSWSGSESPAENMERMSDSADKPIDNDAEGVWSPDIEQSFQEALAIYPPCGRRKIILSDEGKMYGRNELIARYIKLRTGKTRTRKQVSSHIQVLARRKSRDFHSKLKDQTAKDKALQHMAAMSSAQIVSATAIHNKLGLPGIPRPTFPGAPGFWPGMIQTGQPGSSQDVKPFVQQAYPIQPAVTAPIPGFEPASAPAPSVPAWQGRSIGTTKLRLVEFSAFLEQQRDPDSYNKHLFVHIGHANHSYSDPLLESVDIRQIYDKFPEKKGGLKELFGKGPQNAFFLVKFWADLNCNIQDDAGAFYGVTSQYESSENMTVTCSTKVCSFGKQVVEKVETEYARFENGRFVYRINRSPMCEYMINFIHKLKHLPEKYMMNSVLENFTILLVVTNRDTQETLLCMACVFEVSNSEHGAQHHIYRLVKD
UniProt Q15561, whole entry: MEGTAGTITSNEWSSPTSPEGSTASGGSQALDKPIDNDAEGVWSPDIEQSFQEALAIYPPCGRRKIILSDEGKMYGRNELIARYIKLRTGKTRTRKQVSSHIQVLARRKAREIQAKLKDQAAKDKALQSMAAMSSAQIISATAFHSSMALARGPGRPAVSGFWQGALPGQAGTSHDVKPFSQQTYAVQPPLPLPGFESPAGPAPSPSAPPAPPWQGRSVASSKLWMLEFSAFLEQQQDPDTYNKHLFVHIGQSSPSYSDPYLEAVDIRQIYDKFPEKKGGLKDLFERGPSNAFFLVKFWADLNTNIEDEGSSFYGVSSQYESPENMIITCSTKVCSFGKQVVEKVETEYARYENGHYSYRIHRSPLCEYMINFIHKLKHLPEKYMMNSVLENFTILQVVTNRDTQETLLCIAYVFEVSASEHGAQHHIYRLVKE
UniProt Q99594, whole entry: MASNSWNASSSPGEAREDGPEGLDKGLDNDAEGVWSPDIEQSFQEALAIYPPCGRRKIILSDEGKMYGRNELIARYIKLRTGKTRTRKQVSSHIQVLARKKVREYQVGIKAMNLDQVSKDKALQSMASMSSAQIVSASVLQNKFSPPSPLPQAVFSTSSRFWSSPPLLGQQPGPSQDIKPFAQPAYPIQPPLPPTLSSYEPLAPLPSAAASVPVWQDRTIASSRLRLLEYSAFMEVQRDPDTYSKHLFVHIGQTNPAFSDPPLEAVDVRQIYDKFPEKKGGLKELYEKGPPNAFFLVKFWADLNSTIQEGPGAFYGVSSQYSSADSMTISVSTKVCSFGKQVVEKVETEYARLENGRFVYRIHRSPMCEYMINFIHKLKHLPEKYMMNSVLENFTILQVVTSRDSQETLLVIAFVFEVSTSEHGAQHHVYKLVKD
UniProt Q15562, whole entry: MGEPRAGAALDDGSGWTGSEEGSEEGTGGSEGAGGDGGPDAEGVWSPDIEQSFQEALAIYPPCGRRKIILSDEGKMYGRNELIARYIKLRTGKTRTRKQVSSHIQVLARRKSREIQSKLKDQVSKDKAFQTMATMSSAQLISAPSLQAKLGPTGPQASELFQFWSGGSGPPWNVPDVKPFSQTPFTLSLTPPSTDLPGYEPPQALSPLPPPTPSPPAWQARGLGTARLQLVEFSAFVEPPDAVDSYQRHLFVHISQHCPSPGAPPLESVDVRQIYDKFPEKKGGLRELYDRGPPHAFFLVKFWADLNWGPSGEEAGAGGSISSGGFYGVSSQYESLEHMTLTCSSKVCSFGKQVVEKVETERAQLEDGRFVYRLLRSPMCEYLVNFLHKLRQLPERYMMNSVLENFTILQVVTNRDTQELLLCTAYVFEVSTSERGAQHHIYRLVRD

Active and inactive are the calls of the source. The rule behind the calls is not given here.

The target in experiment [1] is T1, Transcriptional enhancer factor TEF-1 (Homo sapiens, UniProt P28347). As to the kind of experiment: Irreversible covalent inhibition of human TEAD1 (209 to 426 residues) expressed in Escherichia coli BL21 (DE3) cells assessed as second order rate constant Kinact/K1 at 0.78 to 100 uM incubated for 24 hrs by electrospray ionization mass spectrometry. The conditions noted are these: dose 0.78-100 µM.

The target in experiment [2] is T2, Transcriptional enhancer factor TEF-3 (Homo sapiens, UniProt Q15561). As to the kind of experiment: Irreversible covalent inhibition of GST-tagged human TEAD4 (217 to 434 residues) expressed in Escherichia coli BL21 (DE3) cells assessed as second order rate constant Kinact/K1 at 0.78 to 100 uM incubated for 24 hrs by electrospray ionization mass spectrometry. As to conditions: dose 0.78-100 µM.

The target of experiment [3] is T1, Transcriptional enhancer factor TEF-1. Kind of experiment: Binding affinity to human TEAD1 (209 to 426 residues) expressed in Escherichia coli BL21 (DE3) cells assessed as binding constant (K1) incubated for 24 hrs by electrospray ionization mass spectrometry.
Experiment [4] concerns the target T3, Transcriptional enhancer factor TEF-5 (Homo sapiens, UniProt Q99594). Kind of experiment: Binding affinity to human TEAD3 (210 to 427 residues) expressed in Escherichia coli BL21 (DE3) cells assessed as binding constant (K1) incubated for 24 hrs by electrospray ionization mass spectrometry.
The target of experiment [5] is T4, Transcriptional enhancer factor TEF-4 (Homo sapiens, UniProt Q15562). As to the kind of experiment: Irreversible covalent inhibition of human TEAD2 (217 to 447 residues) expressed in Escherichia coli BL21 (DE3) cells assessed as second order rate constant Kinact/K1 at 0.78 to 100 uM incubated for 24 hrs by electrospray ionization mass spectrometry. As to conditions: dose 0.78-100 µM.

The target in experiment [6] is T3, Transcriptional enhancer factor TEF-5. As to the kind of experiment: Inhibition of TEAD3 (unknown origin) transfected in human HEK293 cells co-transfected with renilla plasmid assessed as maximum inhibition of transcriptional activity at 10 uM incubated for 24 hrs by dual Glo-luciferase reporter assay relative to control. Format: cell-based. For orientation: In a reporter assay the amount or activity of a reporter protein is the signal.

Experiment [7] has the same target. Kind of experiment: Irreversible covalent inhibition of human TEAD3 (210 to 427 residues) expressed in Escherichia coli BL21 (DE3) cells assessed as second order rate constant Kinact/K1 at 0.78 to 100 uM incubated for 24 hrs by electrospray ionization mass spectrometry. The conditions noted are these: dose 0.78-100 µM.
Experiment [8] concerns the target T4, Transcriptional enhancer factor TEF-4. Kind of experiment: Binding affinity to human TEAD2 (217 to 447 residues) expressed in Escherichia coli BL21 (DE3) cells assessed as binding constant (K1) incubated for 24 hrs by electrospray ionization mass spectrometry.
Experiment [9] has as its target T2, Transcriptional enhancer factor TEF-3. As to the kind of experiment: Binding affinity to GST-tagged human TEAD4 (217 to 434 residues) expressed in Escherichia coli BL21 (DE3) cells assessed as binding constant (K1) incubated for 24 hrs by electrospray ionization mass spectrometry.
Experiment [10] concerns the target T3, Transcriptional enhancer factor TEF-5. Kind of experiment: Inhibition of TEAD3 (unknown origin) transfected in human HEK293 cells co-transfected with renilla plasmid assessed as maximum inhibition of transcriptional activity at 0.1 to 10 uM incubated for 24 hrs by dual Glo-luciferase reporter assay relative to control. It is filed as cell-based. The conditions noted are these: dose 0.1-10 µM.

Broadly, the inhibition is the drop in the measured response relative to a control, in per cent. With `N#CN1Cc2ccc(F)c(Nc3cccc(C(F)(F)F)c3)c2C1`, the K in experiment [1] came out at 148 M⁻¹ s⁻¹; in experiment [2] it was 400 M⁻¹ s⁻¹; in experiment [3], 21.4 µM; in experiment [4], 36.9 µM; in [5], 197 M⁻¹ s⁻¹; in [7], 165 M⁻¹ s⁻¹. Also, the inhibition result in experiment [6] is “Active”. The K result in experiment [8] and in experiment [9] was “inactive” in each case.

As to `N#CN1CC2CCCC(Nc3cccc(C(F)(F)F)c3)C2C1` (stereo not given), the K in experiment [1] was found to be 0.3 M⁻¹ s⁻¹; in experiment [2], 0.1 M⁻¹ s⁻¹; in [3], 38 µM; in experiment [4], 183 µM; in experiment [5], 1 M⁻¹ s⁻¹; in experiment [7], 0.2 M⁻¹ s⁻¹. Besides, the K in experiment [8] amounted to 95 µM; in experiment [9], 231 µM. For the same compound, the Imax in experiment [10] was found to be 38.2%.

For the compound `N#CN1CC2CCCC(Nc3ccc(C(F)(F)F)cc3)C2C1` (stereo not given), the K entry in [1], in experiment [4], in [8] and in experiment [9] was “inactive” in each case. The K in experiment [2] was 1.1 M⁻¹ s⁻¹; in experiment [3], over 100 µM; in experiment [5], 3.3 M⁻¹ s⁻¹; in [7] it was 1.7 M⁻¹ s⁻¹.

For the compound `N#CN1Cc2cccc(Nc3cccc(C(F)(F)F)c3)c2C1`, the K came to 57.4 M⁻¹ s⁻¹ in experiment [1]; 189 M⁻¹ s⁻¹ in experiment [2]; 27.6 µM in experiment [3]; 35.1 µM in experiment [4]; 158 M⁻¹ s⁻¹ in [5]; 68.9 M⁻¹ s⁻¹ in [7]. Also, the K in experiment [9] came out at 15.9 µM. In addition, the Imax in experiment [10] was 61.5%. Besides, the inhibition in [6] turned out to be 80%. The K entry in [8] was “inactive”.

For the compound `N#CN1CC2CCCC(Nc3ccccc3C(F)(F)F)C2C1` (stereo not given), the K in [2] came to 0.1 M⁻¹ s⁻¹; in experiment [5], 0.9 M⁻¹ s⁻¹; in [8], 140 µM; in [9], 167 µM.

As for `N#CN1Cc2cccc(Nc3ccc(C(F)(F)F)cc3)c2C1`, the K in [1] came out at 538 M⁻¹ s⁻¹; in [2], 8.2 M⁻¹ s⁻¹; in experiment [3] it was 4.4 µM; in experiment [4], 9.4 µM; in experiment [5], 141 M⁻¹ s⁻¹; in experiment [7], 241 M⁻¹ s⁻¹. Moreover, the results for the K in experiment [8] and in experiment [9] were 11.8 µM and 4.7 µM, respectively.

Consider `N#CN1Cc2cccc(Nc3ccccc3C(F)(F)F)c2C1`, for which the K was found to be 14.4 M⁻¹ s⁻¹ in experiment [1]; 3.9 M⁻¹ s⁻¹ in experiment [2]; 10.9 µM in [3]; 55 µM in experiment [4]; 45.3 M⁻¹ s⁻¹ in experiment [5]; 7.9 M⁻¹ s⁻¹ in [7]. Moreover, the K worked out at 53.3 µM in [8] and 29.7 µM in experiment [9].

Regarding `COc1ccc2c(c1Nc1cccc(C(F)(F)F)c1)CN(C#N)C2`, the K in experiment [1] was 3.5 M⁻¹ s⁻¹; in experiment [2], 189 M⁻¹ s⁻¹; in [3], 3.3 µM; in experiment [4], 18 µM; in experiment [5] it was 142 M⁻¹ s⁻¹; in experiment [7], 29.4 M⁻¹ s⁻¹. For the same compound, the K is 24.8 µM in [8] and 8.2 µM in experiment [9]. In addition, the inhibition in experiment [6] came to 50%.
